Tested on: splenocytes
Conditions: C57BL/6 mice, pseudofracture trauma, 1400 W 5 mg/kg intraperitoneally, 48 hours, concanavalin A 2.5 μg/ml; vs baseline controls (FIG. 3)

Compound: CC(=N)NCc1cccc(CN)c1 [1400 W, N-(3-(Aminomethyl)benzyl)acetamidine]
- Concanavalin A stimulated splenocyte proliferative responses following trauma: not significantly reduced

Source: patent US20130102662A1, “USE OF INDUCIBLE NITRIC OXIDE SYNTHASE INHIBITORS AND NITRIC OXIDE […] INHIBIT POST-TRAUMATIC IMMUNODEPRESSION” (University of Pittsburgh - of the Commonwealth System of …, priority 2011, published 2013)
